This is an account of results in article PMC4295023 (Investigational New Drugs, 2014).

The nature of the series: Pharmacokinetic analysis of blood samples (noncompartmental). It counts as in vivo, human. To be noted: sorafenib, steady state (cycle 2), HCC patients, tivantinib 360 mg BID and sorafenib 400 mg BID. The procedure:
Blood samples were collected pre-, 1, 2, 4, 6, 8, 12, and 24 h post-dose on Days 1 and 2 of Cycles 1 and 2. The day before and on the day of PK sampling, tivantinib and sorafenib were administered at the same time. Noncompartmental PK parameters were calculated using WinNonlin (Pharsight, Mountain View, CA).

In the case of `CNC(=O)c1cc(Oc2ccc(NC(=O)Nc3ccc(Cl)c(C(F)(F)F)c3)cc2)ccn1` [sorafenib], the “mean Cmax” value was 5,920 ± 2,526 ng/mL.
